# Measurements as given in patent US8378093B2, “Explosives detection markers” (dated 2013).
# Assay: Binding constants between tetra-TTF calix[4]pyrroles and TNB by 1H NMR spectroscopic titration
# Settings: binding to TNB, CDCl3, 298 K, 1:2 complexation, estimated errors <15%
Compound,Ka^1 [M⁻¹],Ka^2 [M⁻¹]
COCCOCCOCCSC1=C(SCCOCCOCCOC)SC(=C2Sc3c4[nH]c(c3S2)C(C)(C)c2[nH]c(c3c2SC(=C2SC(SCCOCCOCCOC)=C(SCCOCCOCCOC)S2)S3)C(C)(C)c2[nH]c(c3c2SC(=C2SC(SCCOCCOCCOC)=C(SCCOCCOCCOC)S2)S3)C(C)(C)c2[nH]c(c3c2SC(=C2SC(SCCOCCOCCOC)=C(SCCOCCOCCOC)S2)S3)C4(C)C)S1,92,412
CC1(C)c2[nH]c(c3c2SC(=C2SC4=C(SCCOCCOCCOc5ccccc5OCCOCCOCCS4)S2)S3)C(C)(C)c2[nH]c(c3c2SC(=C2SC4=C(SCCOCCOCCOc5ccccc5OCCOCCOCCS4)S2)S3)C(C)(C)c2[nH]c(c3c2SC(=C2SC4=C(SCCOCCOCCOc5ccccc5OCCOCCOCCS4)S2)S3)C(C)(C)c2[nH]c1c1c2SC(=C2SC3=C(SCCOCCOCCOc4ccccc4OCCOCCOCCS3)S2)S1,110,520
CC1(C)c2[nH]c(c3c2SC(=C2SC4=C(SCCCCCCCCCCOc5c6ccccc6c(c6ccccc56)OCCCCCCCCCCS4)S2)S3)C(C)(C)c2[nH]c(c3c2SC(=C2SC4=C(SCCCCCCCCCCOc5c6ccccc6c(c6ccccc56)OCCCCCCCCCCS4)S2)S3)C(C)(C)c2[nH]c(c3c2SC(=C2SC4=C(SCCCCCCCCCCOc5c6ccccc6c(c6ccccc56)OCCCCCCCCCCS4)S2)S3)C(C)(C)c2[nH]c1c1c2SC(=C2SC3=C(SCCCCCCCCCCOc4c5ccccc5c(c5ccccc45)OCCCCCCCCCCS3)S2)S1,200,1400

# Assay: Binding constants between tetra-TTF calix[4]pyrrole 2a and nitrated aromatic guests by 1H NMR spectroscopic titration
# Settings: guest binding to 2a, CDCl3, 298 K, 1:2 complexation, estimated errors <15%
Compound,Ka^1 [M⁻¹],Ka^2 [M⁻¹]
O=[N+]([O-])c1cccc([N+](=O)[O-])c1,27,60
"2,4-dinitrophenole",39,76
"2,4,6-trinitrophenole",50,936
